Measurements published in patent US5856309A, “Amidinopyrroline derivatives, processes for their production and pharmaceutical agents containing these compounds” (Boehringer Mannheim GmbH, priority 1997, dated 1999).

Target: T1, human thrombin (Homo sapiens, UniProt P00734)
T1 construct: Thrombin is kept ready in the plasma in the form of prothrombin and is released from this by factor Xa; purchased Sigma
Test: Thrombin inhibition, kinetic measurement with substrate S-2238
Assay type: biochemical
Settings: substrate H-(D)-Phe-Pro-Arg-pNA (S-2238), pH=7.5, 25° C., read-out: inhibition constant Ki (thrombin)
Procedure: The kinetic measurements were carried out in 0.1M phosphate buffer which contained 0.2M sodium chloride and 0.5% polyethylene glycol 6000 at a pH=7.5 and 25° C. using the substrate H-(D)-Phe-Pro-Arg-pNA (S-2238 Kabi) and human thrombin (Sigma, specific activity=2150 NIH units/mg) in polystyrene semimicro-cuvettes in a total volume of 1 ml.
For this the reaction was started first by adding 0.03 NIH units thrombin to a 100 μM solution of the substrate and the active substance. In a second experiment substrate was added to a solution of thrombin and the active substance which had been incubated for 5 min. The increase of the concentration of p-nitro-anilide with time was monitored spectrophotometrically for 12 min at 405 nm (UV-VIS spectrophotometer Lambda-2 from the Perkin-Elmer Company). […] The inhibition constant Ki was determined as follows. […] The increase in absorbance at 405 nm caused by the formation of p-nitroanilide was monitored for a time period of 12 min. Measurement points (time versus absorbance) were transferred to a PC at intervals of 20 sec. The rates Vo (changes in absorbance per see; measurements without inhibitor) and Vi (measurements with inhibitor) were determined from the data by linear regression. […] From one measurement series (constant inhibitor concentration, variable substrate concentrations) Km' and Vmax were determined by a non-linear fit to the equation [formula] […]

D-Pla-D-Phe-L-Choi-Adc [Example 1]
Ki: 150 nM
